From ChEMBL document CHEMBL4414672, “Synthesis of certain benzothieno[3,2-d]pyrimidine derivatives as a selective SIRT2 inhibitors” (Eur J Med Chem, 2020) come the findings set out here.

This assay has as its target T1, NAD-dependent protein deacetylase sirtuin-2 (Homo sapiens) (UniProt Q8IXJ6).
T1 sequence (whole entry): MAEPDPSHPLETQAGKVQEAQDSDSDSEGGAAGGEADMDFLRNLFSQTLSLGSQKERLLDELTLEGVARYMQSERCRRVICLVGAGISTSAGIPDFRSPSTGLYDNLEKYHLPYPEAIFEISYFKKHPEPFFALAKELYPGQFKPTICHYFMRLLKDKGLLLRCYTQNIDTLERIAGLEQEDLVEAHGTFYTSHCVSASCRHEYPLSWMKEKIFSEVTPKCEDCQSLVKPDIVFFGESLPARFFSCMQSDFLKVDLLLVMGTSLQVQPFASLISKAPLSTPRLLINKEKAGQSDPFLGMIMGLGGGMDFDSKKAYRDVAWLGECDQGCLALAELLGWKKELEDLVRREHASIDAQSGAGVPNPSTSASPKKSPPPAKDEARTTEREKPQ
Nature of the assay: Potency index, ratio of cambinol compound IC50 to test compound IC50 for inhibition of SIRT2 (unknown origin).
With `O=[N+]([O-])c1cccc(C2c3sc4ccc(Cl)cc4c3N=C3NN=CN32)c1` (stereo not drawn), the Ratio IC50 was 5.4. Take `O=[N+]([O-])c1cccc(C2c3sc4ccc(Cl)cc4c3N=C3NN=C(c4cccc(F)c4)N32)c1` (stereo not drawn): the Ratio IC50 turned out to be 3.4. For `O=C1CSC2=Nc3c(sc4ccc(Cl)cc34)C(c3ccc4ccccc4c3)N12` (stereo not drawn), the Ratio IC50 was determined as 6.6.
